Data published in patent US7728155B2, “Dihydrobenzofuranyl alkanamines and methods for using same as cns agents” (Wyeth LLC, priority 2003, dated 2010).

Amino acid sequences for entries named in this document (tags omitted). Residues count along the entry.
UniProt P28335, 33-458: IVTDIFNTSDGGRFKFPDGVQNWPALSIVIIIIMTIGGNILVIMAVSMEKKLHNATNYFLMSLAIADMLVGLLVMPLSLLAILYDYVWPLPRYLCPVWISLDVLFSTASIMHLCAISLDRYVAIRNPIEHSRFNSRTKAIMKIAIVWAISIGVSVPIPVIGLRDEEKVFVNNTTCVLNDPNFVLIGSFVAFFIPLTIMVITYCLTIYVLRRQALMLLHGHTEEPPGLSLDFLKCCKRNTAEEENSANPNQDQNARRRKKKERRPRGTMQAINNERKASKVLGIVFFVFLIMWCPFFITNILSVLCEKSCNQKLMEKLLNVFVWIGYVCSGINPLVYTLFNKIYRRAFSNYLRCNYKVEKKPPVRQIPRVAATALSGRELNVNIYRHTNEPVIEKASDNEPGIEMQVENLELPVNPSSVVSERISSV

How the values were obtained:
[1] = target: T1, human 5-hydroxytryptamine-2C (h5-HT2C) receptor (Homo sapiens, UniProt P28335); experiment: [125I]DOI binding affinity at h5-HT2C receptor, CHO cell membranes; details: reference compounds; [125I]DOI displacement, CHO membranes expressing h5-HT2C; read-out: Ki (95% confidence interval)
T1 construct: expressed in transfected cells; host or cells: CHO (Chinese Hamster Ovary) cells; membranes

human 5-HT2C receptor = human 5-HT2C receptor (Homo sapiens, UniProt P28335); experiment: 5-HT2C receptor-stimulated calcium mobilization (FLIPR) in CHO cells; format: cell-based; details: reference compounds, CHO cells expressing human 5-HT2C

`Clc1cccc(N2CCNCC2)c1` [mCPP, meta-chlorophenylpiperazine, reference compound] was tested. Which Ki [1] did it give?
The Ki was 6.5 nM.

What about the EC50 (human 5-HT2C receptor) of the same molecule?
The EC50 was 5.4 nM.
